# Data from PubChem BioAssay (Tox21).
# “And” between values parts separate entries of the source, which are not always exact repeats. Equal entries are not always repeated. The list shows a part of the results, in another mix than the full data. A structure can be active in one record and inactive in another. Entries that show only a call come without a potency. The source made the active and inactive calls. Calls follow the shape of the full dose curve.
# Assay: G protein-coupled receptor (GPCR) small molecule agonists, calcium flux assay: HEK293 wild type cell line counter screen (AID 1920065)
# Settings: HEK293 WT calcium flux, fluorescence, agonist mode; series mostly up to 57.6 µM
# Excerpt: U.S. Tox21 Program National Center for Advancing Translational Sciences [NCATS] Division of Preclinical Innovation [DPI] U.S. Environmental Protection Agency [EPA] National Institutes of Environmental Health Sciences [NIEHS] National Toxicology Program [NTP] U.S. Food and Drug Administration [FDA] Assay overview: The increased intracellular calcium release that occurred upon G protein-coupled receptor (GPCR) activation led to the frequent use of calcium flux assays to detect GPCR activation. For the purpose of studying and screening compounds that may activate GPCR, receptor-overexpressing models were typically generated using Hek293 wild-type (WT) cells. In order to eliminate the compounds that may have induced calcium release for non-specific activation, a counter-assay utilizing calcium flux on Hek293 WT cells was performed. The data were formulated in order to serve as a control for any calcium flux detection utilizing Hek293 cells with either GPCR overexpression or gene modification. The procurement of Hek293 WT cells from ATCC. Fluorescence intensity can be utilized to determine the activation of the compound in a calcium flux assay. As a counter control, this cell line was utilized to screen the Tox21 10K compound library.
# Assay Protocol Summary: Hek293 cells were dispensed at 1500cells/4uL/well in 1536-well black wall/clear bottom plates using a multidrop dispenser. After the assay plates were incubated at a 37 C/5% CO2 incubator for 18 hours, 4 uL of Calcium Dye Solution was added to each well. The plates were incubated at 37 C for 1 hour. For agonist mode, 23 nL of compounds dissolved in DMSO, positive control (ATP) or DMSO only was transferred to the assay plate by a pin tool station. The fluorescence intensity in the plates was measured using FDSS 7000EX kinetic plate reader with a filter set of Ex/Em=480/540 for 3 min at 1 sec intervals. Each test compound was measured at 15 concentrations and in triplicates.
# Potency is read from the fitted curve at half-maximal effect.
row,SMILES,Potency
1,Nc1cc([N+](=O)[O-])cc([N+](=O)[O-])c1O,inactive
2,Cc1ccc([N+](=O)[O-])cc1[N+](=O)[O-],inactive
3,COc1ccc([N+](=O)[O-])cc1[N+](=O)[O-],inactive
4,C/C1=C2N=C(/C=C3N=C(/C(C)=C4\[N-][C@@](C)([C@@H]5N=C1[C@](C)(CCC(=O)NC[C@@H](C)OP(=O)([O-])O[C@H]1[C@@H](O)[C@@H](n6cnc7cc(C)c(C)cc76)O[C@@H]1CO)[C@H]5CC(N)=O)[C@@](C)(CC(N)=O)[C@@H]4CCC(N)=O)[C@@](C)(CC(N)=O)[C@@H]\3CCC(N)=O)C(C)(C)[C@@H]/2CCC(N)=O.[C-]#N.[Co+3],inactive
5,[NH4+].[O-][Cl+3]([O-])([O-])[O-],inactive
6,CCOP(=O)(CC)Oc1ccc([N+](=O)[O-])cc1 (configuration not stated),inactive
7,N=C(N)N[N+](=O)[O-],inactive
8,CCN(CC)CCCl,inactive
9,CCOP(=O)(CC)OCC,inactive
10,O=[N+]([O-])c1cccc([N+](=O)[O-])c1,inactive
11,O=[N+]([O-])OCC(CO[N+](=O)[O-])(CO[N+](=O)[O-])CO[N+](=O)[O-],inactive
12,CC(C)N(CCO)C(C)C,inactive
13,COP(C)(=O)OC,inactive
14,O=[N+]([O-])[O-].[NH4+],inactive
15,CN(C)CCCl,inactive
16,Cc1ccc([N+](=O)[O-])c([N+](=O)[O-])c1,inactive and active: 43.7 µM
17,CC(C)OP(C)(=O)OC(C)C,inactive
18,N#CBr,inactive
19,Cc1cccc([N+](=O)[O-])c1[N+](=O)[O-],inactive
20,Cc1c([N+](=O)[O-])cccc1[N+](=O)[O-],inactive
21,OCCSCCO,inactive
22,CP(=O)(O)OCCC[Si](O)(O)O,inactive
